Columns and labels:
Lewis Lung Cancer (LLC) = assay: NIR detection of flank tumors and pulmonary metastases in the LLC mouse model
[1] = tested on: 4T1 breast cancer, TC1 lung cancer, EL4 thymoma, AE17 mesothelioma, AKR esophageal cancer flank tumors; assay: NIR labeling of syngeneic flank tumors in mice with systemic ICG (tissue spectrometer); conditions: 7.5 mg/kg ICG via tail vein, next day; surrounding tissue and 12 organs

CC1(C)C(/C=C/C=C/C=C/C=C2\N(CCCCS(=O)(=O)[O-])c3ccc4ccccc4c3C2(C)C)=[N+](CCCCS(=O)(=O)[O-])c2ccc3ccccc3c21.[Na+] [ICG, indocyanine green]
mean and standard deviation tumor fluorescence, flank tumors (Lewis Lung Cancer (LLC); LLC flank tumors, 7.5 mg/kg ICG via tail vein): 53,290±2668 au | mean tumor fluorescence in early small deposits under 1 mm (Lewis Lung Cancer (LLC); pulmonary metastases): 39,923±4577 au | mean fluorescence from surrounding normal tissues and organs [1]: 4863±1254 au
